From PubChem BioAssay AID652104 (National Center for Advancing Translational Sciences (NCATS), 2013)
Where “and” joins values, the source holds several entries; their conditions need not be identical. Equal values may be shown once. Only a part is listed here, and it is no random draw. Some of these compounds have results that are not shown, active ones among them. Results filed as inconclusive are left out. Calls of active or inactive are those of the source. Calls come from the whole dose curve; as a rule, active = well fitted activation curve with a large enough effect; inconclusive = small, poorly fitted or top-dose-only effect, or another doubt; inactive = no such curve, though single readings can be large or run the other way.

experiment: qHTS of TDP-43 Inhibitors; settings: TDP-43 expressing yeast growth rescue, BacTiter-Glo, 24 h; at 46.1 µM (top of the series) unless noted; note: % of control where 0% means no effect; nearly all actives have a fitted effect of over 50% in size

Row | Compound | growth rescue (activation)
1 | CC(C)COc1ccc(C(=O)NCC2(N(C)C)CCCCC2)cc1 | inactive: -15.8%
2 | O=C(OC1CN2CCC1CC2)C(CO)(c1ccccc1)c1ccccc1 (stereo unspecified) | inactive: -6.35%
3 | COc1cccc(C(=O)NCC2(N3CCOCC3)CCCCC2)c1 | inactive: -7.89%
4 | CN(C)c1cccc(C(=O)NCC2(N(C)C)CCCCC2)c1 | inactive: 6.9%
5 | CC(C)Oc1ccc(C(=O)NCC2(N(C)C)CCCCC2)cc1 | inactive: 17.2% and inactive: 9.78%
6 | O=C(OCCN1CCCC1)C(O)(c1ccccc1)c1ccccc1 | inactive: 14.5%
7 | Cc1cccc(C(=O)NCC2(N(C)C)CCCCC2)c1 | inactive: 30.1%
8 | COc1cc(C(=O)NCC2(N(C)C)CCCCC2)cc(OC)c1OC | inactive: 12.1% [at 9.22 µM]
9 | COc1ccc(Br)c(C(=O)NCC2(N3CCCCC3)CCCCC2)c1 | inactive: 5.83%
10 | C=C(C)C#CC(O)(C(=O)OC1CCN(C)CC1)c1ccccc1 (stereo unspecified) | inactive: -9.79%
11 | COc1cc(C(=O)NCC2(N(C)C)CCCCC2)c([N+](=O)[O-])cc1OC | inactive: 2.15%
12 | CN(C)C1(CNC(=O)c2ccc(Br)cc2)CCCCC1 | inactive: -27.9%
13 | O=C(NCC1(N2CCCCC2)CCCCC1)c1cccc(Cl)c1 | inactive: -5.09%
14 | COc1ccc(C(=O)NCC2(N(C)C)CCCCC2)cc1Cl | inactive: 8.22%
15 | COc1cccc(C(=O)NCC2(N3CCCCC3)CCCCC2)c1 | inactive: -12.3%
16 | COc1ccc(Cl)cc1C(=O)NCC1(N(C)C)CCCCC1 | inactive: 5%
17 | CCCCOc1ccccc1C(=O)NCC1(N(C)C)CCCCC1 | inactive: -31.1%
18 | CN(C)C1(CNC(=O)c2ccccc2[N+](=O)[O-])CCCCC1 | inactive: 11.5%

Row | Compound | growth rescue (activation)
19 | Cc1ccccc1C(=O)NCC1(N2CCCCC2)CCCCC1 | inactive: 14.2%
20 | CN(C)C1CCCC1OC(=O)C(O)(c1ccccc1)c1ccccc1 (stereo unspecified) | inactive: -0.27%
21 | CN(C)c1ccc(C(=O)NCC2(N(C)C)CCCCC2)cc1 | inactive: 11%
22 | Cc1cc(C(=O)NCC2(N3CCCCC3)CCCCC2)ccc1[N+](=O)[O-] | inactive: -6.82%
23 | CCN1CCCC(OC(=O)C2(O)c3ccccc3C=Cc3ccccc32)C1 (stereo unspecified) | inactive: 6.86%
24 | O=C(NCC1(N2CCCCC2)CCCCC1)c1cccc(Br)c1 | inactive: -10.5%
25 | COc1ccc(C(=O)NCC2(N(C)C)CCCCC2)cc1 | inactive: 18.6%
26 | CCOc1cccc(C(=O)NCC2(N(C)C)CCCCC2)c1 | inactive: -2.63%
27 | C=CCN1CCN(CCOC(=O)C(O)(c2ccccc2)c2ccccc2)CC1 | inactive: 9.39%
28 | O=C(NCC1(N2CCCCC2)CCCCC1)c1cc(F)c(F)cc1Cl | inactive: -6.16%
29 | CN1[C@@H]2CC[C@H]1CC(OC(=O)C(O)(c1ccccc1)c1ccccc1)C2 (stereo partly specified) | inactive: 7.56%
30 | O=C(NCC1(N2CCCCC2)CCCCC1)c1cc([N+](=O)[O-])ccc1Cl | inactive: 13.5%
31 | CN(C)C1(CNC(=O)c2ccccc2F)CCCCC1 | inactive: -1.91%
32 | Cc1ccc(C(=O)NCC2(N3CCCCC3)CCCCC2)cc1 | inactive: -29.8%
33 | CC(C)N1C(=O)CC2(CCN(CCOC(=O)C(O)(c3ccccc3)c3ccccc3)CC2)C1=O | inactive: 6.44%
34 | CCN(CC)CC(C)C(C)OC(=O)C(O)(c1ccccc1)c1ccccc1 (stereo unspecified) | inactive: -0.453%
35 | CN(C)C1(CNC(=O)c2cccc(Cl)c2)CCCCC1 | inactive: 16.6%
36 | COc1cc(SC)ccc1C(=O)NCC1(N(C)C)CCCCC1 | inactive: 5.92%
